In patent US20240000961A1, “ANTIBODY-BASED CONJUGATE FOR ENHANCING THERAPEUTIC EFFECT OF TARGETED THERAPEUTIC AGENT” (THE CATHOLIC UNIVERSITY OF KOREA INDUSTRY-ACADEMIC …, priority 2020, published 2024):

Conditions: nude mice, intravenous

Substance: avelumab-maleimide-Pluronic F68-chlorin e6 [AVE-Mal-PF68-Ce6]
- fluorescence in the body compared to avelumab-maleimide-polyethylene glycol 2k-chlorin e6 and avelumab-chlorin e6 injection groups (1.78 mg/kg based on chlorin e6, imaged for 144 hours): stronger fluorescence could be confirmed for a significantly longer time
- fluorescence relative to avelumab-chlorin e6 or avelumab-maleimide-polyethylene glycol 2k-chlorin e6 injection group (at 144 hours): about 2.7 times
